Experiments:
[1] = tested on: advanced breast cancers with HER2 expression; assay: ACE-Breast-01 (ARX788-111) Phase 1 multiple dose-escalation study; assay type: in vivo, human; settings: 1.5 mg/kg, N = 29
[2] = tested on: Advanced Solid Tumors with HER2-expression or mutation; assay: ACE-Pan tumor-01 (ARX788-1711) Phase 1 study; assay type: in vivo, human
[3] = tested on: HER2-positive advanced gastric cancer or gastroesophageal junction adenocarcinoma (GC/GEJ); assay: ACE-Gastric-01 Phase 1 clinical trial; assay type: in vivo, human
[4] = ADC incubated in plasma samples, detection of free AS269; assay type: in vitro ADME
From the text: The resulting ADC has a homogeneous drug to antibody ratio (DAR) of 1.9 to 2.0 (theoretical maximal DAR of 2.0). The mechanism of action of the ADC is achieved through multiple sequential steps. The ADC specifically binds to HER2 on the surface of cancer cells, is rapidly internalized, transports to the lysosome, and is metabolized inside the lysosome to release pAF-AS269, which binds to microtubules and induces cell cycle arrest and cell death. […] Consequently, release of free AS269 is not expected in the circulation after its IV administration. The ADC specifically binds to HER2 on the surface of cancer cells, followed by rapid internalization into the cancer cells, then transports to lysosomes and is metabolized by target cells to release a potent tubulin inhibitor, pAF-AS269 that can inhibit proliferation of cancer cells.

[5] = Cumulative clinical safety data, ARX788-1711 (ACE-Pan-tumor-01) and ARX788-111 (ACE-Breast-01)
[6] = 1.5 mg/kg (N = 13 response evaluable)

In the case of ARX788, the “Drug-related Deaths” value [1] is reported as 0 Number of patients (%), the “Pneumonitis/ILD, All Grades” value ([1]; Table 8) is reported as 11 Number of patients (%) and the “Pneumonitis/ILD, All Grades” value ([1]; Table 9) is reported as 14 (48.3%) Number of patients (%). The “Confirmed ORR” value ([2]; 1.1 mg/kg Q4W (N = 3)) was 33%, the ORR ([2]; 1.1 mg/kg Q4W (N = 3)) was 33% and the “Drug-related Deaths” value ([2]; 1.5 mg/kg, N = 8) was 0 Number of patients (%). For the same substance, the “response in the first tumor assessment scan” value ([2]; 85-year-old HR+/HER2-low (IHC1+) metastatic breast cancer patient) was “partial response”, the “liver metastasis decrease in size” value ([2]; 85-year-old HR+/HER2-low (IHC1+) metastatic breast cancer patient, after 2 cycles) was 30% and the “liver metastasis further decrease in size (PR)” value ([2]; same patient, after 4 cycles) was 59%. For the same substance, the DCR [3, 6] was 46%, the OOR [3, 6] was 46% and the “Confirmed ORR” value ([3]; 1.5 mg/kg Q3W (N = 13 response evaluable)) was 46%. For the same substance, the “patients with confirmed objective response” value ([3]; 1.5 mg/kg Q3W, of 13 patients) was 6 patients, the “Drug-related Deaths” value ([3]; 1.5 mg/kg, N = 14) was 0 Number of patients (%) and the “Pneumonitis/ILD, Grade 3 or 4” value ([3]; 1.5 mg/kg, N = 14, Table 8) was 0 Number of patients (%). For the same substance, the “Pneumonitis/ILD, Grade 3 or 4” value ([3]; 1.5 mg/kg, N = 14, Table 9) was 0 Number of patients (%), the “free AS269 after incubation in plasma” value [4] was “no free AS269 was detected” and the “dose at which pneumonitis (delayed SAE) occurs” value ([5]; after 4-5 cycles of administration) was at least 1.3 mg/kg. For the same substance, the tolerability ([5]; cumulative data from dosed populations) was “generally well tolerated”.

From US20250161471A1, “ANTI-HER2 ANTIBODY-DRUG CONJUGATES AND USES THEREOF” (priority 2021, published 2025)
